# AlphaSeq binding of Ab-14 light chain variants to a spike HR2 peptide

Reference: Engelhart et al. 2022, doi:10.1038/s41597-022-01779-4. File: FLAb, binding data.

Binding partner: SARS-CoV-2 spike HR2 peptide, sequence PDVDLGDISGINAS.

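The starting antibody came from a phage panning campaign against this peptide. In library AAYL50, one, two or three CDR residues were substituted; doubles and triples were drawn at random. In AlphaSeq, yeast of one mating type display the scFv and yeast of the other type display the target. Pairs that bind mate more often; barcode pairs of the diploids are counted by sequencing. Read counts were normalised to the haploid input and turned into Kd by a linear fit to BCL2-family pairs of known affinity, for each replicate. There are three technical replicates.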

Parent scFv Ab-14: VH joined to VL by the linker GGGGSGGGGSGGGGS. Changes lie in the light chain CDRs alone.
VH: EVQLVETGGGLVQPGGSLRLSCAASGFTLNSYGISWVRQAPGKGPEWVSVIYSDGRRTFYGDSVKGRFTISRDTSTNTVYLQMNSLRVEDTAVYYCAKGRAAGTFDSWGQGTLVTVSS
VL: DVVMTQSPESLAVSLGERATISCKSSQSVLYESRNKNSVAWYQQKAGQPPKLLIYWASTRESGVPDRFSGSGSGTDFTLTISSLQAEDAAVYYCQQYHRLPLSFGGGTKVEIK

Variants are written as CDR1, CDR2 and CDR3 of the light chain (limits as in the source). Parent: KSSQSVLYESRNKNSVA, WASTRES, QQYHRLPLS.
Numbers give log10(Kd / nM), so 0 is 1 nM and 3 is 1 µM. Smaller is tighter.
The mean shown is taken over the replicates in which the pair was detected.
Where no diploid with the target was found in that replicate, the entry reads "nd": below detection, most likely a poor binder, though not proof of it.
Three control strains display no target. For library AAYL50, 18% of the pairings with them gave a signal, with a median of 4.19 and one signal in twenty below 2.99, so weak values seen in few replicates may be background. The control count says in how many pairings with the empty strains this scFv gave a signal, with their mean in brackets.
In this assay the parent's reference entry averaged 0.65; its copy inside this library read 1.68.

| # | CDR-L1 | CDR-L2 | CDR-L3 | log10 Kd (nM) by replicate | mean log10 Kd (nM) | control signals |
|---|---|---|---|---|---|---|
| 1 | KSSQSVTYESENKNSVA | WASTRES | SQYHRLPLS | 0.32 / 0.66 / 0.53 | 0.50 | 4/9 (4.57) |
| 2 | KSSQSDLYFSRNKNSVA | WASERES | QQYHRLPLS | 0.35 / 0.57 / 0.44 | 0.45 | 1/9 (3.60) |
| 3 | KSEQSVLYESRMKNSVA | WASTRES | QQKHRLPLS | nd / nd / nd | nd | 3/9 (4.30) |
| 4 | KSSQSVPYEIRTKNSVA | WASTRES | QQYHRLPLS | 1.48 / 1.39 / 1.77 | 1.55 | 1/9 (2.98) |
| 5 | KSSQSVLYESRGKNSVA | WALTRES | QQYHRLRLS | 2.51 / 2.53 / 2.22 | 2.42 | 0/9 |
| 6 | KSSQSVLYESRVKNSVA | WASTRES | QQYPRLPMS | 1.26 / 1.09 / 1.04 | 1.13 | 4/9 (4.61) |
| 7 | FPSQSVLYESRNKNSVA | WASTREL | QQYHRLPLS | nd / nd / nd | nd | 1/9 (3.55) |
| 8 | KSSQSVLTESRNKNSVA | WASLRES | QQYHRLNLS | nd / nd / nd | nd | 1/9 (4.68) |
| 9 | QSSQSVLYESRNDNSVA | WASTRES | QQYHRHPLS | 1.58 / 1.86 / 1.97 | 1.81 | 0/9 |
| 10 | KSYQYVLYESRNKNSVA | WASTRES | QQQHRLPLS | nd / nd / nd | nd | 2/9 (4.68) |
| 11 | KSSQIVLYESRNKNSVE | WASTRNS | QQYHRLPLS | nd / nd / nd | nd | 0/9 |
| 12 | KSSNSVLYESRNKNSVA | WASTREC | QQYHRLELS | nd / 3.71 / nd | 3.71 | 3/9 (4.00) |
| 13 | KKSQSCLYESRNKNSVA | WASTRES | QQYERLPLS | 1.25 / 1.04 / 1.22 | 1.17 | 0/9 |
| 14 | KSSQSVLYESRNKSSVA | WASTRES | QQYHRLALS | 1.99 / 1.95 / 2.31 | 2.08 | 4/9 (4.14) |
| 15 | ASSQSRLYESRNKNSVA | WASTRES | QQYHRLPLK | nd / 4.07 / 5.20 | 4.63 | 1/9 (4.70) |
| 16 | KSSQSRLYESRAKNSVA | WAHTRES | QQYHRLPLS | 2.90 / 2.23 / 2.88 | 2.67 | 1/9 (3.34) |
| 17 | KSSQSVLYESRNKNSKA | WASTREW | QQYHGLPLS | nd / nd / nd | nd | 2/9 (3.59) |
| 18 | KSSQSVLYETRNKNSVA | WASTRES | QQRYRLPLS | nd / 3.50 / nd | 3.50 | 1/9 (3.43) |
| 19 | KSSQSVLYESDNKNSVA | WASTRHS | QAYHRLPLS | 1.87 / 1.99 / 2.21 | 2.02 | 1/9 (3.50) |
| 20 | PSSQSMLPESRNKNSVA | WASTRES | QQYHRLPLS | 4.14 / nd / nd | 4.14 | 0/9 |
| 21 | KSSQSVLEESRNKNSVA | WASTPES | QQYHRLPLS | nd / nd / nd | nd | 1/9 (3.49) |
| 22 | KSSQSVLYESRNKNSVA | WSFTRER | QQYHRLPLS | 2.67 / 2.96 / 3.18 | 2.94 | 1/9 (3.65) |
| 23 | KSSQSVLYESRNHNSVA | DASTRES | QQYHRLPTS | nd / 4.26 / 4.35 | 4.30 | 0/9 |
| 24 | KSSQSVLYESRNKNSEA | WASSREI | QQYHRLPLS | nd / nd / nd | nd | 0/9 |
| 25 | KSSQSVLYESRNKVSVA | WASTEES | QQYHRQPLS | nd / nd / nd | nd | 0/9 |
| 26 | KTSQSVLYESRNKNSVA | WASTRES | VQYFRLPLS | nd / nd / nd | nd | 1/9 (2.60) |
| 27 | KSSQSVLMESRNKWSVA | WASTRES | QQYYRLPLS | 1.63 / 1.71 / 1.64 | 1.66 | 3/9 (4.08) |
| 28 | ISSQSVLYESRNKNSVA | WASTRLS | QQYHRLPLS | 1.48 / 1.36 / 1.66 | 1.50 | 0/9 |
| 29 | KQSQSVLYESRNKNSVA | DASTRES | QQYHRLPLS | -0.87 / -0.42 / -0.71 | -0.67 | 4/9 (4.65) |
| 30 | KSSQSVEHESRNKNSVA | WASTRES | FQYHRLPLS | nd / nd / 4.24 | 4.24 | 0/9 |
| 31 | KSSQSVLYESRNKNSVA | WASTRES | QQYNALPKS | 4.72 / 3.52 / nd | 4.12 | 3/9 (3.92) |
| 32 | KSSQSVLYESRNKNSVA | WASTRQS | QQYHRLPLD | nd / nd / 6.25 | 6.25 | 2/9 (4.44) |
| 33 | KSSQCVLYESRMKNSVA | WADTRES | QQYHRLPLS | 1.89 / 2.05 / 2.20 | 2.05 | 2/9 (4.05) |
| 34 | KSSQSVLYESRNKNSMI | WASTRTS | QQYHRLPLS | 4.22 / 4.68 / nd | 4.45 | 1/9 (4.01) |
| 35 | KSSQSKLYESRNKNSVA | MASTREK | QQYHRLPLS | 0.15 / 0.39 / 0.34 | 0.29 | 3/9 (3.52) |
| 36 | KSSQSVLYESRNKFSVA | WASTDES | QQYHRLPLP | 3.66 / nd / 5.50 | 4.58 | 3/9 (4.74) |
| 37 | KSSQSVLYESRNKNSYA | WASTRES | QQYHRSPLQ | nd / nd / nd | nd | 2/9 (3.22) |
| 38 | PSSQSVLYESRNKNSEA | WASTRES | QQYLRLPLS | nd / nd / nd | nd | 0/9 |
| 39 | KSSQSVLYESRNKNSEA | WGSTREC | QQYHRLPLS | 3.74 / nd / nd | 3.74 | 0/9 |
| 40 | TSSQSVLYESRNKNSVA | WASTRES | QQYHDLPLS | 2.00 / 1.80 / 2.13 | 1.98 | 5/9 (4.39) |
| 41 | KSSQSVLYESRNKSSVA | AASTRES | QQYHRAPLS | nd / nd / nd | nd | 1/9 (3.87) |
| 42 | KQSLSVLYESRNKNSVA | WASTRES | QQYARLPLS | 0.46 / 0.70 / 0.67 | 0.61 | 1/9 (5.41) |
| 43 | KSSQLVLYESRNKNSSA | WASTRES | QQYHRLPLS | 4.35 / 3.25 / 3.60 | 3.73 | 4/9 (4.73) |
| 44 | KSSQSVLYESRNKNSVA | WAKTRES | FQYHRLPLS | 4.05 / 3.30 / 3.82 | 3.72 | 4/9 (5.20) |
| 45 | KSSQSVLYESRNKNSVA | VGSTRES | QQTHRLPLS | nd / nd / nd | nd | 0/9 |
| 46 | KSSQTVLYESRNKNSVA | WASTRES | QQYHRLPLS | 1.26 / 1.54 / 1.47 | 1.43 | 0/9 |
| 47 | KQSQSVLYESRNKNSVA | QASTRES | QQYHRLPLY | -0.08 / 0.49 / 0.33 | 0.25 | 0/9 |
| 48 | YSSQFVLYESRNKNSVA | WADTRES | QQYHRLPLS | 2.53 / 2.36 / 2.46 | 2.45 | 2/9 (5.02) |
| 49 | KSSQSVLYESRNKNSVQ | WASTRES | QRLHRLPLS | nd / nd / nd | nd | 0/9 |
| 50 | KSYQSVLYESRNYNSVA | WASTRES | AQYHRLPLS | 2.05 / 1.95 / 1.99 | 2.00 | 3/9 (4.08) |
| 51 | KSSQSVVYESRNKNSVA | WASTREA | QQYHRLPLS | 0.70 / 0.82 / 0.75 | 0.76 | 3/9 (4.49) |
| 52 | KVSGSVLYESRNKNSVA | WASTRES | QQYHRLPLS | -0.07 / 0.18 / 0.07 | 0.06 | 1/9 (2.75) |

Top 3 of the variants detected in all replicates, tightest first:

CDR-L1,CDR-L2,CDR-L3,log10 Kd (nM) by replicate,mean log10 Kd (nM),control signals
KQSQSVLYESRNKNSVA,DASTRES,QQYHRLPLS,-0.87 / -0.42 / -0.71,-0.67,4/9 (4.65)
KVSGSVLYESRNKNSVA,WASTRES,QQYHRLPLS,-0.07 / 0.18 / 0.07,0.06,1/9 (2.75)
KQSQSVLYESRNKNSVA,QASTRES,QQYHRLPLY,-0.08 / 0.49 / 0.33,0.25,0/9